Assay results from PMC3728706.
Changes are numbered by the printed parent chain. Blank lines part the entries; values can stand above or below the molecule they belong to.

Molecular target: fluorescently labeled peptide derived from the C-terminus of β-catenin
Test: fluorescence polarisation

Kd: 176 µM
Molecule: Neurabin-1 PDZ domain (domain or fragment)

Kd: 79 µM
B1: Dvl1 PDZ domain (domain or fragment)
chain: TVTLNMERHHFLGISIVGQSNDRGDGGIYIGSIMKGGAVAADGRIEPGDMLLQVNDVNFENMSNDDAVRVLRE

Kd: 155 µM
B2: Dvl3 PDZ domain (domain or fragment)
chain: B1 chain with R8K, H9Y, H10N, D22E, D56E, V57I
